In patent publication US5059587A, “Physiologically active peptide composition for nasal administration” (Toyo Jozo Company, Ltd., priority 1987, dated 1991):

What was measured:
[1] = test system: Japanese White strain male rabbits; test: Nasal administration of h-PTH (1-34) in rabbits (arterial blood pressure), Example 18; format: in vivo, rabbit; details: by addition of a water-soluble organic acid as absorption promoter (Table 1)
Description: (a) Experiment for Nasal Administration of h-PTH (1-34) in Rabbits
Japanese White strain male rabbits (body weight: 3 kg, one group consisting of 5 rabbits) were fasted overnight and then a tube was previously cannulated into one of carotids under anesthetization for.measurement of arterial pressure. The arterial pressure was recorded
through a pressure transducer. The h-PTH (1-34) nasal administration preparation of preparation 9 prepared in Example 18 (10 U/2 mg/kg) was nasally administered to the rabbits under anesthetization. […] For comparison, injection preparation of h-PTH (1-34) (3 U/2 mg/kg) was intravenously administered and similarly blood pressure was measured.

[2] = test system: Japanese White strain male rabbits; test: Nasal administration of insulin preparation in rabbits (plasma glucose), Example 14; format: in vivo, rabbit; details: nasal 5 U/2.1 mg/kg, 30 min-6 h, with D-glucuronic acid, compared with control preparation (FIG. 3)

Substance | absorption through nasal mucosa [1] | absorption through the nasal mucosa (decrease of glucose concentration in plasma) [2]
human parathyroid hormone 1-34 [h-PTH (1-34)] | efficiently absorbed | 
porcine insulin sodium salt |  | more efficiently absorbed
